A value given as a limit tells only on which side of the number the result lay.

By UniProt entry, the sequences of proteins in these tests, tags left out.
UniProt P27487, whole entry: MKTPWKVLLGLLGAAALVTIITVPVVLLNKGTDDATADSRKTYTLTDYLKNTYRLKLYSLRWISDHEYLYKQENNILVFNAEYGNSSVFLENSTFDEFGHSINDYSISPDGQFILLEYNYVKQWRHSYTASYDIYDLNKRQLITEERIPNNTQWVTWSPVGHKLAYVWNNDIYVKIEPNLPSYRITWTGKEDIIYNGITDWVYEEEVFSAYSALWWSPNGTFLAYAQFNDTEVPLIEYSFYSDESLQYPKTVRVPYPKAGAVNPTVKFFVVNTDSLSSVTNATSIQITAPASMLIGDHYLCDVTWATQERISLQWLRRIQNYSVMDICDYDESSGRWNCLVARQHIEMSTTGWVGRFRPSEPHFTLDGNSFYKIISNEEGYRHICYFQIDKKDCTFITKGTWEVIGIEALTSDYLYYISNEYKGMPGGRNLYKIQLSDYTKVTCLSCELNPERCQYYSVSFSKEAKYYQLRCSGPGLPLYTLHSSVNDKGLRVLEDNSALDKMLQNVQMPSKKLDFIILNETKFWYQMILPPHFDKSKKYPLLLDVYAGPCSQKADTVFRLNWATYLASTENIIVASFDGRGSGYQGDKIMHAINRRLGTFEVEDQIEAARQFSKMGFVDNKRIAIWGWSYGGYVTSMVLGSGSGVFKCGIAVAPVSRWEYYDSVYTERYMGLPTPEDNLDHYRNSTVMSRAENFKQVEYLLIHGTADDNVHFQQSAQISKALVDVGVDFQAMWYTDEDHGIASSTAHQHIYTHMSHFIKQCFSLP

The target of one assay is T1, Recombinant Human DPPIV/CD26 (Homo sapiens, UniProt P27487).
T1 construct: purchased R&D Systems, Inc
The assay is described as follows: Dipeptidyl peptidase-IV (DPP-4) inhibiting activity, fluorescent substrate H-Gly-Pro-AMC. In kind it is biochemical. To be noted: chemically synthesized peptides of Production Example 2; read-out: Test Example 1: DPP-4 inhibiting activity IC50 (converted). On the procedure:
<Method for Measuring Dipeptidyl Peptidase-IV Inhibiting Activity>
The measurement of the dipeptidyl peptidase-IV (DPP-4) inhibition was conducted in accordance with the method by Kato et al (Kato, T. et al. Biochem. Med. 19, p 351, 1978).
Typically, the enzymatic reaction was conducted using Recombinant Human DPPIV/CD26 (R&D Systems, Inc.) as an enzyme (DPP-4) and H-Gly-Pro-AMC (Biomol GmbH) as a substrate.
To each well of a 96-well microplate (nunc 137101), water or an aqueous solution of the test substance at each concentration or a HPLC fraction was added, and then 20 μl of Tris-HCl (0.25M, pH 8.0) was added to make the entire volume 80 μl. After stirring, the plate was warmed for about 10 minutes in an incubator at 37° C., and 10 μl of the DPP-4 solution and 10 μl of the substrate solution were added (a total volume of 100 μl), and stirred to initiate the reaction. The well receiving water instead of the enzyme was used as a control.
The enzymatic reaction was measured using a microplate reader (SH-9000, Corona Electric Co., Ltd), and the measurement was conducted under the condition which kept the temperature in the chamber at 37° C. (5-minute intervals, ex360 nm/em460 nm).
From the fluorescent intensity value during the time period during which the fluorescent intensity was increased linearly (within 30 minutes after initiation of the reaction), the inhibiting activity was calculated using the following equation. As a positive control, Vildagliptin (JS Research Chemicals Trading) was employed. Inhibition ratio (%)=100%−[(Y−b)/(X−a)]×100% • X: Water+Enzyme+Substrate • Y: Test substance+Enzyme+Substrate • a: Water+Substrate • b: Test substance+Substrate
<Method for Obtaining IC50>
The test substance was diluted serially to several concentrations (10 to 2000 μg/ml), whose inhibition ratio was obtained. […] Then from this equation of the relationship, the concentration allowing the enzyme inhibition ratio to be 50% was calculated reversely, thereby calculating the IC50.
As to `CC[C@H](C)[C@H](N)C(=O)N1CCC[C@H]1C(=O)N1CCC[C@H]1C(=O)O` [IPP, Ile-Pro-Pro, reference compound], the IC50 is 4120 µM.

Regarding `CC(C)[C@H](N)C(=O)N1CCC[C@H]1C(=O)N[C@@H](CC(N)=O)C(=O)O` [VPN, Val-Pro-Asn], the IC50 was 17.4 µM.

`CC(C)C[C@H](N)C(=O)N[C@@H](Cc1ccc(O)cc1)C(=O)O` [LY, reference compound]: the IC50 is 1650 µM.

Take `CC(C)[C@H](N)C(=O)N1CCC[C@H]1C(=O)N[C@H](C(=O)O)C(C)C` [VPV, Val-Pro-Val]: the IC50 is 3.19 µM.

In the case of `CC(C)[C@H](N)C(=O)N1CCC[C@H]1C(=O)N[C@@H](CCCCN)C(=O)O` [VPK, Val-Pro-Lys], the IC50 is 30.4 µM.

As for `CC(C)[C@H](N)C(=O)N1CCC[C@H]1C(=O)NCC(=O)O` [VPG, Val-Pro-Gly], the IC50 is 12.5 µM.

Consider `CC(C)[C@H](N)C(=O)N1CCC[C@H]1C(=O)N[C@@H](CCC(N)=O)C(=O)O` [VPQ, Val-Pro-Gln], for which the IC50 is 7.59 µM.

As to `CC(C)[C@H](N)C(=O)N1CCC[C@H]1C(=O)N[C@@H](CO)C(=O)O` [VPS, Val-Pro-Ser], the IC50 is 17.2 µM.

On to `CC(C)[C@H](N)C(=O)N1CCC[C@H]1C(=O)N[C@@H](Cc1ccc(O)cc1)C(=O)O` [VPY, Val-Pro-Tyr], for which the IC50 was 18.9 µM.

As to `CC(C)[C@H](N)C(=O)N1CCC[C@H]1C(=O)N1CCC[C@H]1C(=O)O` [VPP, Val-Pro-Pro, reference compound], the IC50 was more than 6420 µM.

The assay is the same for the next values; noted with them: values given in running text (HPLC fraction, synthetic peptide, commercial casein degradation products); read-out: concentration for 50% inhibition of the dipeptidyl peptidase-IV (converted).
For `CC(C)[C@H](N)C(=O)N1CCC[C@H]1C(=O)N[C@@H](C)C(=O)O` [VPA, Val-Pro-Ala], the IC50 is 6.66 µM.

For the origin of these results see patent US9617300B2, “Dipeptidyl peptidase-IV inhibitor” (MORINAGA MILK INDUSTRY CO., LTD, priority 2012, dated 2017).
